The term Kd denotes the free concentration of one partner at which half of the binding sites on the other are occupied at equilibrium, for simple one-to-one binding. Higher therefore signals weaker binding.

In this assay the target is T1, Tau peptide encompassing residues 299-318 (human).
T1 construct: also called Tau protein (peptide)
T1 peptide: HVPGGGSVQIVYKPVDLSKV
The assay can be described thus: isothermal titration calorimetry, peptide in cell titrated with IgG, PBS pH 7.4, one set of sites model. On the technique in general: Isothermal titration calorimetry measures the heat released or taken up as one component is titrated into another.

B1: CBTAU-27.1 (antibody, V domains shown)
VH: QVQLVESGPEMRKPGESLKISCKTSGYIFSDYWTAWVRQLPGKGLQWMGIIYSGDSDTRYHPSVQGHVTMSTDSSLTTAYLQWSSLKASDTGIYYCARLDARVDAGWQLDSWGQGTLVTVSS
VL: DIQLTQSPDSLAVSLGERATINCKSSQSVFSRDNNKNYLAWYQHKSGQPPKLLFFWASSRESGVSDRFSGSGSGTDFTLTIDNLQAEDVALYYCQHYFNTPHNFGQGTKLEIK
For the molecule B1, the Kd was determined as 675 nM.

Source of the values: patent US20210122810A1 (Janssen / Centocor, published 2021).
